Source: PubChem BioAssay (NCATS)
Only a part is listed here, and it is no random draw. Results filed as inconclusive are left out. For part of these data: Potency and affinity values are given separately. Calls of active or inactive are those of the source. Unless noted, calls follow the shape of the dose curve; as a rule, active = well fitted curve in the direction sought with a large enough effect; inconclusive = small, poorly fitted or top-dose-only effect, or another doubt; inactive = no such curve, though single readings can be large; an effect the other way counts as inactive or inconclusive.

By UniProt entry, the sequences of proteins in these tests, tags left out. Where a name states a change or a piece, a line headed by the entry shows the natural chain unless it says otherwise.
UniProt Q07343: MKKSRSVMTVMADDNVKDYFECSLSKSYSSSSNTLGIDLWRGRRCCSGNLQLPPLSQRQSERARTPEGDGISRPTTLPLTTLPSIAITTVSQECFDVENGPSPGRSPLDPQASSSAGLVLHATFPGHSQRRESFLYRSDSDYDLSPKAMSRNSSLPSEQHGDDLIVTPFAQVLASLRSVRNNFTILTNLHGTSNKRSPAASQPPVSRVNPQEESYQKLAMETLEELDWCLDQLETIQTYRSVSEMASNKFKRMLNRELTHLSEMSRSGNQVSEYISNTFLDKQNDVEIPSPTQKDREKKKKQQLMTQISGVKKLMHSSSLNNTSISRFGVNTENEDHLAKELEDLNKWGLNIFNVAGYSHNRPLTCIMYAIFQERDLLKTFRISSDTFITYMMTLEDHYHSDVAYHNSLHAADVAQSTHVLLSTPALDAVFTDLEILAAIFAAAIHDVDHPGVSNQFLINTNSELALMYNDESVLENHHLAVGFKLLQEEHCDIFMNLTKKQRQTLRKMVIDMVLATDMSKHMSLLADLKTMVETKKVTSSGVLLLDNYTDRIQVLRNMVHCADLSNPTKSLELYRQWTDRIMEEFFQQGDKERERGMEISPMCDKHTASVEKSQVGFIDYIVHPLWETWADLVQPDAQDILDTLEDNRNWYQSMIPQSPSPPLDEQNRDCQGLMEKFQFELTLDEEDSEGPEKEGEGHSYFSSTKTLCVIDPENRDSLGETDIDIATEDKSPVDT
UniProt O94782: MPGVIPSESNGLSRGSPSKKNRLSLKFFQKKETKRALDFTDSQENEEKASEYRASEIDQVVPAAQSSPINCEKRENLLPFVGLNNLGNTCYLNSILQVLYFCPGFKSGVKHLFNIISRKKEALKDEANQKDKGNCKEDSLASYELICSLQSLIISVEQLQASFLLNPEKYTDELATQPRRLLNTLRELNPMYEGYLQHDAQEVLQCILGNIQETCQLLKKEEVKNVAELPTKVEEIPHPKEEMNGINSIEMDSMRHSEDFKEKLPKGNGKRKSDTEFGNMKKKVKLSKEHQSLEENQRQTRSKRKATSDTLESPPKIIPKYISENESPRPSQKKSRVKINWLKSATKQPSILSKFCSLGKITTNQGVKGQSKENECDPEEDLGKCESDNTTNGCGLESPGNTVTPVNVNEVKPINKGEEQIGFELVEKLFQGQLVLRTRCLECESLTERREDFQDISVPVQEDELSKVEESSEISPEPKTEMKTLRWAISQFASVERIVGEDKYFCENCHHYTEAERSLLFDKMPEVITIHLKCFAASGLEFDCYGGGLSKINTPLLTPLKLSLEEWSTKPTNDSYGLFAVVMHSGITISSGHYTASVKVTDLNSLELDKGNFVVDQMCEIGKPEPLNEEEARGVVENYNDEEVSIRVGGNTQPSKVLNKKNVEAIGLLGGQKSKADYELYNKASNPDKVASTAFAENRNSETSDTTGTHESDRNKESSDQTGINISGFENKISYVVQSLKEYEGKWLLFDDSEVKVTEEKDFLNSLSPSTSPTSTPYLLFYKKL
UniProt Q12809: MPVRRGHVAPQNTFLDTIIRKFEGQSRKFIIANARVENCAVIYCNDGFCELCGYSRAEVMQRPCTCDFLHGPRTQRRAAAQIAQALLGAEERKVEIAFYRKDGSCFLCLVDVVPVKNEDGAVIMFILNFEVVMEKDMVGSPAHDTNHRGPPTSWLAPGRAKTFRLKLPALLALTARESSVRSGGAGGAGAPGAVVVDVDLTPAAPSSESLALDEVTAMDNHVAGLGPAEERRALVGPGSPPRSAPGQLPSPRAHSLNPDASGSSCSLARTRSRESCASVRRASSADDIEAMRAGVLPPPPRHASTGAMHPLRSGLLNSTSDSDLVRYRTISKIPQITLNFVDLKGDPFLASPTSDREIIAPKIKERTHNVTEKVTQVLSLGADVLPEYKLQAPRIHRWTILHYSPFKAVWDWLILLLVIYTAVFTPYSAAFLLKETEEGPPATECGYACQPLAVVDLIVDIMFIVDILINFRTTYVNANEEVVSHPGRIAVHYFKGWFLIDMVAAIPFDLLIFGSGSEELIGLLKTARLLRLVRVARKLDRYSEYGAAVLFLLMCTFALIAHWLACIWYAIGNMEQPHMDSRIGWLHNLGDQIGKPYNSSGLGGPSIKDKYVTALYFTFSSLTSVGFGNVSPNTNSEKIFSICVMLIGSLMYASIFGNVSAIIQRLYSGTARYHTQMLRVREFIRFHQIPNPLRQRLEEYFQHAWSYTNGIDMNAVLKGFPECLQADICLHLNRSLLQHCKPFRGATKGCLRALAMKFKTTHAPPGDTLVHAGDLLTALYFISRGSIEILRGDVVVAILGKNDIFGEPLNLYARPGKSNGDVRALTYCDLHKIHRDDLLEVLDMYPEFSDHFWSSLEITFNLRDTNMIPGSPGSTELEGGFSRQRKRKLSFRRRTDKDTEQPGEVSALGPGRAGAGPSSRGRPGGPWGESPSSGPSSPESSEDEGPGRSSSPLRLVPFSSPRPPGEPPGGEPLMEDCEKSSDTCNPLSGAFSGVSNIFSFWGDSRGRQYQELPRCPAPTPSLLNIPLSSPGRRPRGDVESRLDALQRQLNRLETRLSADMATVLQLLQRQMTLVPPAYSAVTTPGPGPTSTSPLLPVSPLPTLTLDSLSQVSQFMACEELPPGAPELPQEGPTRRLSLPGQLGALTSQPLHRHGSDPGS
UniProt P08659, whole entry, looked up: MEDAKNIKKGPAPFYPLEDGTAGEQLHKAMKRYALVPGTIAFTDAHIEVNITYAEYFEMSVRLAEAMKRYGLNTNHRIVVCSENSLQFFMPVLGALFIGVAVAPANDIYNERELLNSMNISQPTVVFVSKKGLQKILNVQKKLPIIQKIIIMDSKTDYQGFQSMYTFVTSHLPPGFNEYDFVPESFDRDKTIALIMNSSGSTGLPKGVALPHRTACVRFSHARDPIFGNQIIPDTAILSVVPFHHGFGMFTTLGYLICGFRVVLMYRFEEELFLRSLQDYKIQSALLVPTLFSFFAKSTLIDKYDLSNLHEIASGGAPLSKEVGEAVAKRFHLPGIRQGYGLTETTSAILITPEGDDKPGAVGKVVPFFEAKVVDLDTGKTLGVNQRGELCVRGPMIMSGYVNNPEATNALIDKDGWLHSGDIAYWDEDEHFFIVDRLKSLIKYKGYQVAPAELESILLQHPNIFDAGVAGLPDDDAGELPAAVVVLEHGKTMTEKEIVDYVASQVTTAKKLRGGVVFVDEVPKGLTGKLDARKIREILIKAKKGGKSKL

Assays:
[1] = NFAT Signaling Pathway (AID 444; active = well fitted curve in either direction with a large enough effect, not every such curve was filed as active;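 also: carbachol stimulus at about its EC50 of 1 µM final; % is scaled to controls: 0 for no effect and ±100 for the full control effect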); conditions: Jurkat NFAT-bla M1, carbachol, beta-lactamase ratio, 5 h; at 7.69 µM (top of the series) unless noted
[2] = molecular target: 3',5'-cyclic-AMP phosphodiesterase 4B (Homo sapiens) (UniProt Q07343); test: qHTS Assay for Inhibitors of PDE-IV (AID 607; active = well fitted activation curve with a large enough effect in the main read-out, with a control signal flat, not every such curve was filed as active; also: % of control where 0% means no effect); conditions: HEK293 ACTOne CNG channel cells, membrane potential fluorescence; at 22.9 µM (top of the series)
How it was run: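 The readout is membrane depolarisation from a cAMP-sensing CNG channel, detected with a potential dye at ex 535/em 590. Cells were HEK293-derived (endogenous PDE-IV) at 1000 cells/well, titrated up to 22.9 uM final.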

[3] = molecular target: Ubiquitin carboxyl-terminal hydrolase 1 (Homo sapiens) (UniProt O94782); test: Inhibitors of USP1/UAF1: Pilot qHTS (AID 504865); conditions: purified USP1/UAF1, Ub-rhodamine cleavage fluorescence; at 114 µM (top of the series);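 also: rhodamine fluorescence freed from ubiquitin-rhodamine substrate followed over time; top concentration of the series differs between compounds; % is scaled to controls: 0 for no effect and ±100 for the full control effect; nearly all actives have a fitted effect of over 35% in size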
[4] = molecular target: Voltage-gated inwardly rectifying potassium channel KCNH2 (Homo sapiens) (UniProt Q12809); test: qHTS Assay for Small Molecule Inhibitors of the Human hERG Channel Activity (AID 588834); conditions: U2OS BacMam hERG, FluxOR thallium flux fluorescence; at 46.1 µM (top of the series) unless noted;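 also: U2OS cells transduced with hERG by BacMam; top concentration of the series differs between compounds; % is scaled to controls: 0 for no effect and ±100 for the full control effect; lower thallium flux fluorescence means stronger hERG block; nearly all actives have a fitted effect of over 50% in size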
[5] = molecular target: Luciferin 4-monooxygenase (Photinus pyralis) (UniProt P08659); test: Biochemical firefly luciferase enzyme assay for NPC (AID 624030);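 also: purified P. pyralis luciferase at 10 nM with luciferin and ATP substrate; 0% = DMSO and -100% = full luciferase inhibition by PTC124 control; nearly all actives have a fitted effect of over 70% in size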; conditions: purified P. pyralis luciferase, luminescence, 5 min; at 58.6 µM (top of the series) unless noted
How it was run: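 Direct inhibition of firefly luciferase enzyme (10 nM final, 50 mM Tris Acetate) assessed by luminescence within 5 minutes. Percent activity scaled between DMSO and PTC124 positive control, with concentration-effect curves classified by fit quality and response.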

[6] = S16 Schwann cell viability assay (CellTiter-Glo assay) (AID 624031); conditions: S16 rat Schwann cells viability, 24 h; at 57.5 µM (top of the series);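 also: cellular ATP luminescence as a viability measure; plate controls were DMSO-treated cells for no effect and cell-free wells for full effect; nearly all actives have a fitted effect of over 70% in size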
How it was run: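 This viability control uses native rat S16 Schwann cells grown in DMEM plus 10% FBS. After a 24 h compound treatment at 37 °C, CellTiter-Glo luminescence reports ATP content, scaled against DMSO-treated and cell-free wells.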

[7] = S16 Schwann cell PMP22 intronic element firefly luciferase assay (AID 624032); conditions: S16 rat Schwann cells, PMP22 element FLuc, 24 h; at 57.5 µM (top of the series);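 also: plate controls were DMSO for no effect and PTC124 positive control mean for full effect; nearly all actives have a fitted effect of over 30% in size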
[8] = S16 Schwann cell PMP22 intronic element beta-lactamase assay (AID 624044; calls by dose curve;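 also: 0% = DMSO and -100% = potassium clavulanate positive control; nearly all actives have a fitted effect of over 15% in size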); conditions: S16 rat Schwann cells, PMP22 element beta-lactamase FRET, 24 h; at 38.3 µM (top of the series)
[9] = qHTS Assay for Identifying Gametocytocidal Compounds (AID 743244);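 also: % is scaled to controls: 0 for no effect and ±100 for the full control effect; actives lower the fluorescent signal which means gametocytes are killed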; conditions: P. falciparum 3D7 stage III-V gametocytes, alamarBlue, 72 h; max response: active compounds read low
[10] = qHTS assay to identify small molecule inhibitors of chordoma cells - UCH-1 (AID 1259355); conditions: UCH-1 chordoma viability, CellTiter-Glo, 48 h, combination, with auranofin plus four topoisomerase inhibitors; at 46.1 µM (top of the series); also: % is scaled to controls: 0 for no effect and ±100 for the full control effect; nearly all actives have a fitted effect of over 55% in size
How it was run: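 Seed 800 cells per well; incubate overnight at 37 C, 5% CO2. Add test compounds (15 concentrations), then the auranofin–topoisomerase-agent combination. Incubate 48hr, add CellTiter-Glo, wait 30min, read luminescence.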

[11] = qHTS assay to identify small molecule inhibitors of chordoma cells - UCH-2 (AID 1259356); conditions: UCH-2 chordoma viability, CellTiter-Glo ATP luminescence, 48 h; at 46.1 µM (top of the series); also: % is scaled to controls: 0 for no effect and ±100 for the full control effect
[12] = P-glycoprotein substrates identified in KB-8-5-11 adenocarcinoma cell line, qHTS therapeutic library screen (AID 1346987); conditions: KB-8-5-11 (P-gp overexpressing) viability, CellTiter-Glo, 72 h; at 44.5 µM (top of the series) unless noted; also: % is scaled to controls: 0 for no effect and ±100 for the full control effect; nearly all actives have a fitted effect of over 65% in size
KB-3-1 = test: Cytotoxic Profiling of Annotated Libraries Using Quantitative High-Throughput Screening (AID 1296008); conditions: Five cell lines viability, CellTiter-Glo ATP luminescence, 48-72 h, active compounds read low; also: % is scaled to controls: 0 for no effect and ±100 for the full control effect; nearly all actives have a fitted effect of over 60% in size
[13] = Drug repurposing screens with cells derived from glioblastoma tumor samples (AID 1345199); conditions: GBM patient neurospheres viability, ATP luminescence, 48 h; Potency: tumour line A; series mostly up to 46.1 µM; also: % is scaled to controls: 0 for no effect and ±100 for the full control effect; nearly all actives have a fitted effect of over 40% in size
How it was run: (§1)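 Four patient lines of CD133+ GBM neurospheres were screened at several concentrations; hits were retested in those lines plus three slower-growing GBM lines, using 48-hour treatment and ATP-based viability.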

astro = test: as above; conditions: viability, ATP luminescence, 48 h; at 45.9 µM (top of the series) unless noted
How it was run: as §1

[N-]=[N+]=NCC(N)=O
inactive: activity change, negative = inhibition [1] 0.823% | activation (PDE inhibition) [2] 3.97%

O=C(OC1CN2CCC1CC2)c1ccccc1 (stereo not given)
inactive: activity change, negative = inhibition [3] -4.81% | activity change, negative = inhibition [4] 0.749% | activity change, negative = inhibition [5] -0.691% | activity change, negative = cytotoxicity [6] 4.74% | activity change, negative = inhibition [7] -4.06% | ratio activity, negative = inhibition [8] 2.98% | max response [9] 7.07% | activity, negative = inhibition [10] -6.1% | activity change, negative = inhibition [11] -0.949% | activity change, negative = cytotoxicity [12] 18.1% | max response (KB-3-1) 4.19% | Potency [13] | activity, negative = cell killing (astro) -16.2%
